Experimental data reported in patent EP3539977B1, “ENZYMES WITH CHLOROGENIC ACID ESTERASE ACTIVITY AND FERULOYL ESTERASE ACTIVITY” (SternEnzym GmbH & Co. KG, priority 2014, dated 2016).

Amino acid sequences for entries named in this document (tags omitted). Residues count along the entry.
UniProt A0A060S684, 22-585, stated change not applied: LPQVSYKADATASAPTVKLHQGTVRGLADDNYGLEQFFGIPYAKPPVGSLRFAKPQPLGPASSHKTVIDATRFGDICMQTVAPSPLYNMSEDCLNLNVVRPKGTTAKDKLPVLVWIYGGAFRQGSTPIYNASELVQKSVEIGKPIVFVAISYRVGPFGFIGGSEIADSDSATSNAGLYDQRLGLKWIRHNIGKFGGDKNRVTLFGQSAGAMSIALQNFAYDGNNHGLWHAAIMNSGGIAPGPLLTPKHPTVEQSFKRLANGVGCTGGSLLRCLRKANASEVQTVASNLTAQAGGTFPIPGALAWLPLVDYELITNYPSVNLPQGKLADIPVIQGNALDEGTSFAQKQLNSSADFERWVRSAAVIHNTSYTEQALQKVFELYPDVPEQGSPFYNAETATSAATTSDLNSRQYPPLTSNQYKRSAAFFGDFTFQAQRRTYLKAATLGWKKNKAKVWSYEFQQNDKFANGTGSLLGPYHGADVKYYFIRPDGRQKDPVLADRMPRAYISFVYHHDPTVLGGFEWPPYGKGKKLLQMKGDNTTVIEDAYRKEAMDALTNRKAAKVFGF

Molecular target: T1, UmChlE (Mycosarcoma maydis, UniProt A0A060S684, P492L)
T1 construct: purification of the chlorogenic acid esterase UmChlE from culture supernatant of U. maydis was accomplished by three complementary separation steps; made in house; host or cells: Ustilago maydis itself (native producer), culture supernatant; Q Sepharose FF, preparative IEF, polyamide column
Assay type: biochemical, Ustilago maydis
Method: Chlorogenic acid esterase activity was determined at 37 °C in 50 mM Tris buffer at pH 7.5 using chlorogenic acid and methyl ferulate as standard substrates, unless otherwise stated. The release of the corresponding free acids was analyzed with HPLC-UV. If appropriate, the hydrolysis of other benzoic and cinnamic acid ester derivatives as well as feruloylated saccharides was measured with the same method. After incubation for one hour the reaction was terminated by doubling the reacting volume with acetonitrile. Samples were centrifuged (15 min, 15.000 × g) before injection to the HPLC (Chromolith Performance RP-18e reverse-phase column, 100 × 4.6 mm, Merck, Darmstadt, Germany). […] Substance elution was detected at 232 nm (benzoic and 3-hydroxybenzoic acid), 254 nm (4-hydroxybenzoic and vanillic acid), 275 nm (cinnamic and gallic acid), 306 nm (p-coumaric acid) and 323 nm (ferulic, caffeic, chlorogenic and sinapic acid) using a Shimadzu UV-Vis detector (SPD-10A VP, Shimadzu Deutschland GmbH, Duisburg, Germany). One unit of enzyme activity was defined as the amount of enzyme releasing one µmοl of free acid per minute under the specified conditions. […]
Remaining enzyme activity was measured after 1 h incubation with 1mM, or, in a further experiment, 1.95 mM methyl ferulate and different metal ions as well as inhibitors in concentrations listed above (at 37 °C, 50 mM Tris buffer pH 7.5). […]

O=S(=O)(F)Cc1ccccc1 [PMSF, phenylmethylsulfonylfluoride]
Relative esterase activity (1 mM additive, methyl ferulate, 1 h, 37 °C, 50 mM Tris pH 7.5): 36 (2.01) %
enzyme activity was inhibited (1 mM inhibitor): 64%
